From article PMC7228038 (Journal of medicinal chemistry, 2019)

Assays:
[1] = test system: HCC95 cells; conditions: dose-response up to 30 μM, 5 hours
[2] = Oxidative metabolic stability in murine microsomes; conditions: relative to NAcM-OPT

CCN1C(=O)[C@@H](NC(=O)c2cccc(C)c2)[C@@H](c2ccc(F)cc2)c2c(C)nn(-c3ccccc3)c21 (relative stereo) [Compound 27, N-(rel-(4S,5S)-7-ethyl-4-(4-fluorophenyl)-3-methyl-6-oxo-1-phenyl-4,5,6,7-tetrahydro-1H-pyrazolo[3,4-b]pyridin-5-yl)-3-methylbenzamide]
Effect on reactive oxygen species (DCFDA) [1]: neither 27, 87, nor NAcM-OPT have any measurable effects on reactive oxygen species
Murine microsomal stability compared with that previously reported for NAcM-OPT [2]: ≤ 2 fold
